According to patent US20230150966A1, “ISOTOPICALLY ENRICHED 3,4-METHYLENEDIOXY-N-[…] (MDE) AND STEREOISOMERS THEREOF” (published 2023):

System: Sprague-Dawley rats
Experiment: Rat elevated zero maze model of anxiety
Conditions: positive control 6 mg/kg ip, male SD rats

## Chlordiazepoxide
  frequency of SAPs: significant reduction in SAPs
  percentage of time spent in the open arms: significant increase in time in the open arms for the R MDE group and S MDE group only
